The values below come from PMC12836348, “Alanine Mutagenesis Identifies Specific Amino Acids of Nemertide Alpha‑1 Activity and Its Binding to Target Receptors” (Journal of Natural Products, 2025).

This assay concerns Nav1.8. Put plainly: Ion channel panel, Nav1.8. Details: key: “+” means tested and produced effect; “–“ means tested but no effect. The assay is classed as cell-based. Conditions: S12A at 5 μM; Xenopus oocytes, n ≥ 3. The method, then: For the expression of NaV channels (hNav1.1, rNaV1.2, rNaV1.3, rNaV1.4, hNaV1.5, hNaV1.6, hNav1.7, and the insect channel BgNaV1) in Xenopus laevis oocytes, the linearized plasmids were transcribed using the T7 or SP6 mMESSAGE-mMACHINE transcription kit (Ambion, Carlsbad, CA, USA). The harvesting of stage V and VI oocytes from an anaesthetized female X. laevis frog was described previously. , Oocytes were injected with 50 nL of cRNA at a concentration of 1 ng/nL using a microinjector (Drummond Scientific, Broomall, PA, USA). The oocytes were incubated in a solution containing 96 mM NaCl, 2 mM KCl, 1.8 mM CaCl2, 2 mM MgCl2, and 5 mM HEPES (pH 7.4), supplemented with 50 mg/L gentamycin sulfate. […] Whole-cell currents from oocytes were recorded 1–4 days after injection. […]
To assess the concentration–response relationships, data were fitted with the Hill equation: y = 100/[1 + (EC50/[toxin])^ h ], where y is the amplitude of the toxin-induced effect (y = I 30 ms/I peak where I 30 ms is the current value at 30 ms in the presence of toxin and I peak is the peak current amplitude in control conditions), EC50 is the toxin concentration at half-maximal efficacy, [toxin] is the toxin concentration, and h is the Hill coefficient. […] ASIC1a currents were measured in ND96 solutions at a pH of 7.4 and 4.5, at a holding potential of −70 mV during 400 s, and the data were filtered at 20 Hz. […]

With `CC[C@H](C)[C@@H]1NC(=O)[C@@H](NC(=O)CN)CSSC[C@@H]2NC(=O)[C@@H]3CSSC[C@@H](C(=O)N[C@@H](CC(N)=O)C(=O)N4C[C@H](O)C[C@H]4C(=O)N4C[C@H](O)C[C@H]4C(=O)N[C@@H](CC(N)=O)C(=O)N[C@@H](CCC(N)=O)C(=O)O)NC(=O)[C@H](CCCCN)NC(=O)[C@H](Cc4ccccc4)NC(=O)[C@H](CC(N)=O)NC(=O)[C@H](Cc4c[nH]c5ccccc45)NC(=O)CNC(=O)[C@H](CSSC[C@H](NC(=O)[C@H](Cc4ccccc4)NC(=O)[C@H](CO)NC(=O)CNC(=O)[C@H]([C@@H](C)O)NC(=O)[C@H](C)NC1=O)C(=O)N[C@@H]([C@@H](C)O)C(=O)N[C@@H](CC(C)C)C(=O)N[C@@H](C)C(=O)N[C@@H](CCCCN)C(=O)NCC(=O)N3)NC(=O)[C@H](CC(N)=O)NC(=O)[C@H](CCCCN)NC(=O)[C@H]([C@@H](C)O)NC2=O` [Peptide S12A], the “effect on Nav1.8” value was “–”.
